Values quoted from earlier work as cited in patent US8889143B2, “Ii-key/HER-2/neu hybrid cancer vaccine” (Antigen Express, Inc., priority 2006, dated 2014).

Conditions: cited from earlier work
[1] = Her-2/neu+ breast cancer patients

E75: immunogenic peptide of Her-2/neu used in clinical trials as vaccine
Safety in patients [1]: safe in patients | Stimulation of antigen specific immunity [1]: effective in stimulating antigen specific immunity | Clinical benefit (breast cancer patients): clinical benefit in preventing recurrence of breast cancer
